Data from patent publication US6737397B1, “Control of cancer growth through the interaction of [MET5]-enkephalin and the zeta receptor” (The Penn State Research Foundation, priority 1996, dated 2004).

Protein sequences, listed by entry. Tags and fused reporters are not part of them.
UniProt Q9NZT2, whole entry: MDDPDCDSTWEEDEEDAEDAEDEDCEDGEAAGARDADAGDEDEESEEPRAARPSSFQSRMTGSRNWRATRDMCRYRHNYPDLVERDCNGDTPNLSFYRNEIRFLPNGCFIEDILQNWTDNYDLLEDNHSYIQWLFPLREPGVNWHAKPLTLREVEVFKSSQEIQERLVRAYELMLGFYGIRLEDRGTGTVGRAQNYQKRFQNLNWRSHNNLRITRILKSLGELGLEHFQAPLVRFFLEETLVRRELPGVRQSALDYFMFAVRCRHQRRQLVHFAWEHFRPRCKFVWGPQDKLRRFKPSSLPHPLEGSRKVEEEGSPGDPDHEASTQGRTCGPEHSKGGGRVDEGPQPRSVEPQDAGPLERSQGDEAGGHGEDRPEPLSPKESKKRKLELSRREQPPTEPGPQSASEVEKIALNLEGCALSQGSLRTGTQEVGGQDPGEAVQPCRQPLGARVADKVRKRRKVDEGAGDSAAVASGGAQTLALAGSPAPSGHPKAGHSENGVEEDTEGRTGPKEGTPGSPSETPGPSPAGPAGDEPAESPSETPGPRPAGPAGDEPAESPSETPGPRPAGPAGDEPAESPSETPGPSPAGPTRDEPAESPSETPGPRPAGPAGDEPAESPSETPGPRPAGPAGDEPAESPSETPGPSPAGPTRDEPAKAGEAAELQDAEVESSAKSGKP

Target: ζ opioid receptor (Homo sapiens, UniProt Q9NZT2)
Assay: Competition for binding of [3H][Met5]enkephalin (4.0 nM) in nuclear homogenates of HT-29 human colon tumors
Conditions: for IC50: 4.0 nM [3H][Met5]enkephalin

Cc1cccc(NC(=O)N[C@@H]2N=C(c3ccccc3)c3ccccc3N(C)C2=O)c1
ability to compete in displacing [3H]-[Met5]-enkephalin binding: not very competitive
IC50: 1250 nM
Ki (read-out: KI nM, calculated from IC50 by Cheng and Prusoff): 960 nM

CN1C(=O)[C@@H](NC(=O)c2cc3ccccc3[nH]2)N=C(c2ccccc2)c2ccccc21
ability to compete in displacing [3H]-[Met5]-enkephalin binding: not very competitive
IC50 (unit M printed in cell): > 10000 nM
Ki (unit M printed in cell): > 10000 nM

Read-outs that look alike come from different tables or passages of the source.
